# According to paper PMC2849849 (Neuropharmacology, 2010):
# Protein sequences, listed by entry. Tags and fused reporters are not part of them. Residues count along the entry.
# UniProt O70174, 31-629: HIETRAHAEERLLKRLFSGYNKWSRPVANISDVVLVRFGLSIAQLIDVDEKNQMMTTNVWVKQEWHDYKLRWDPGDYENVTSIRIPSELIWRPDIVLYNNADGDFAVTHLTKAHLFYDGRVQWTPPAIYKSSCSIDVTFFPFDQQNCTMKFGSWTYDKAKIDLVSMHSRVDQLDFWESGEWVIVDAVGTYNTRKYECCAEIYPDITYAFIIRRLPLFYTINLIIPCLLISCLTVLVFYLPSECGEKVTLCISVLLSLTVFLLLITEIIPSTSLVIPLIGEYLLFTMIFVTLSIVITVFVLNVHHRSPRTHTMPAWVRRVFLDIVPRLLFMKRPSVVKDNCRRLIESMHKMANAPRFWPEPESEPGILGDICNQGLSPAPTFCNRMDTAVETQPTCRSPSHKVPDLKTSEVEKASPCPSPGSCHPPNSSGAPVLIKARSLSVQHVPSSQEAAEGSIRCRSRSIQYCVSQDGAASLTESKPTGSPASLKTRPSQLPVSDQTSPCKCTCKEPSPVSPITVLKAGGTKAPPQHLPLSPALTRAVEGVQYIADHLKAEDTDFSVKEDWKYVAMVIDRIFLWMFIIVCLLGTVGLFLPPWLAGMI
# UniProt Q9ERK7, 26-501: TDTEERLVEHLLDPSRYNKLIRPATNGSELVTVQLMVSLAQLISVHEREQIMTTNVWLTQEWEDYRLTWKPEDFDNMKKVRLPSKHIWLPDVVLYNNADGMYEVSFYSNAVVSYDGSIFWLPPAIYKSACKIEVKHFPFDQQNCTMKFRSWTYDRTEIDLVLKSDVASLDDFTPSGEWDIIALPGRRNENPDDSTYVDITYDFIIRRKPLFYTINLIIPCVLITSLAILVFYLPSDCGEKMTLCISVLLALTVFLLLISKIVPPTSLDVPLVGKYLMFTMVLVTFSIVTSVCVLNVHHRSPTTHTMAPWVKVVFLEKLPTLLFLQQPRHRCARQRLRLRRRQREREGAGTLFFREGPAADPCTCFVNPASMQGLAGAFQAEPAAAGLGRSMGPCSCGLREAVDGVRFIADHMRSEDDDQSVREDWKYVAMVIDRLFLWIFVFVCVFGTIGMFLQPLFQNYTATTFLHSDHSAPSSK
# UniProt P49582, 23-502: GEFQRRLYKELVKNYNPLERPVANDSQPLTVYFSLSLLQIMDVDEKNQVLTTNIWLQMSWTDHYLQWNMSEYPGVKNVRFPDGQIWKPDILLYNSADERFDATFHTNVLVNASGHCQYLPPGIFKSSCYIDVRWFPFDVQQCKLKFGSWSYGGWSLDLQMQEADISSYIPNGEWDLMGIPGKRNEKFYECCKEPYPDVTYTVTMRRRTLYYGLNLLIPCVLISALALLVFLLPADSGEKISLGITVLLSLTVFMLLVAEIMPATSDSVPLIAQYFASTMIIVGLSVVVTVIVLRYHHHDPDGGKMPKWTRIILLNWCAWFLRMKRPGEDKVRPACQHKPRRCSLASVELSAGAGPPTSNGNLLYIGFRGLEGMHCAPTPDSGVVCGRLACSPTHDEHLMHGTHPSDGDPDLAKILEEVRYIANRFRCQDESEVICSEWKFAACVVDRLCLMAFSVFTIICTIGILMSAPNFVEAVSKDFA
# Where “and” joins values, the source holds several entries; their conditions need not be identical. Equal values may be shown once.
# Key:
# α4β2*-nAChR = α4β2*-nAChR (Mus musculus, UniProt O70174+Q9ERK7); experiment: α-CtxMII-resistant [3H]-dopamine release from striatal synaptosomes; format: biochemical
# α7-nAChR = α7-nAChR (Mus musculus, UniProt P49582); details: read-out: IC50 inhibition of binding to α7-nAChR; membranes from HP
structure (smiles),measurement,setting,value
"c1cncc(C2CC3CCN2CC3)c1 (racemic) [Compound 1, (±)-2-(-3-pyridinyl)-1-azabicyclo[2.2.2]octane]",Efficacy at α4β2* compared to nicotine,α4β2*-nAChR,30%
same,"Efficacy α4β2* (first number, [3H]DA release)",α4β2*-nAChR,28% and 28 ± 2 % 31 ± 4%
same,IC50,α7-nAChR,30.8 ± 8.39 nM
